Sequences of proteins named here, by UniProt entry; tags and fusion partners are left off.
UniProt Q99720, whole entry: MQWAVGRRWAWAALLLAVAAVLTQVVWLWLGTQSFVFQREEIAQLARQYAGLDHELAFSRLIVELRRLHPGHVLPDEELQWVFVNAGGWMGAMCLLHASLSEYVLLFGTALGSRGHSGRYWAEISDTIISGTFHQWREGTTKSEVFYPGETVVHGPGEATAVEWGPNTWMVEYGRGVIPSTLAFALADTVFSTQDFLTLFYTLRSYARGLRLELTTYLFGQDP

What follows are compounds tested against Sigma non-opioid intracellular receptor 1 (Homo sapiens, UniProt Q99720) (assay: Displacement of [3H](+)-pentazocine from human sigma 1 receptor transfected in HEK293 cells after 120 mins by liquid scintillation counting).
Type: cell-based
In the case of CC(=O)N1CCN(CCNc2cn(-c3ccc(Cl)c(Cl)c3)nn2)CC1, the Ki is reported as 275 nM. Compound CCN(CCN1CCOCC1)c1cn(-c2ccc(Cl)c(Cl)c2)nn1 has a Ki of 216 nM. CCN(CCN1CCOCC1)c1cn(C23CC4CC(CC(C4)C2)C3)nn1 was tested, and the Ki was 111 nM.
